The record followed here is US20250074919A1, “Heteroaryl compounds as inhibitors of irak4, compositions and applications thereof” (Accro Bioscience (HK) Limited, priority 2021, published 2025).

Sequences of proteins named here, by UniProt entry; tags and fusion partners are left off.
UniProt Q9NWZ3, whole entry: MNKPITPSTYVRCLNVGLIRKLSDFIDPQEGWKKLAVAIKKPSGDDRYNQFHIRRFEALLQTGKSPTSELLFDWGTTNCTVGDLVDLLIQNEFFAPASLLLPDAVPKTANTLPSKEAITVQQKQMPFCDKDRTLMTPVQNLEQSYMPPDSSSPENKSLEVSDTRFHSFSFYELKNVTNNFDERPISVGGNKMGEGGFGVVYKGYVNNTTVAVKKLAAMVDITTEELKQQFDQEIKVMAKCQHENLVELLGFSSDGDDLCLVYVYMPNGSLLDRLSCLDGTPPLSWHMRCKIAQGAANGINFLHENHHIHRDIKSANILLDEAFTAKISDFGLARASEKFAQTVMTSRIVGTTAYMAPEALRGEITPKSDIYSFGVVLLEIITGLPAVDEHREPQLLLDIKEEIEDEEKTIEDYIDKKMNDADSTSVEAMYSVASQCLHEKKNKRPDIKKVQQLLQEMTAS

Like-named read-outs stand apart in the source and are kept apart here.

The experiment deals with IRAK4 (Homo sapiens (Human), UniProt Q9NWZ3). The experiment in a line: Screening the compounds against IRAK4 with ATP (Caliper, FAM-labeled peptide). It counts as biochemical. To be noted: for IC50: read-out: IC50 (nM) (10 μM ATP). Here is the method: Prepare Ix kinase base buffer and stop buffer for testing kinases: (1) base buffer: 50 mM HEPES (pH 7.5), 0.0015% Brij-35; (2) stop buffer: 100 mM HEPES (pH 7.5), 0.015% Brij-35, 0.2% Coating Reagent #3, 50 mM EDTA. Then prepare compounds for testing: Dilute the compound to 50× of the final desired highest inhibitor concentration in reaction by 100% DMSO. Transfer 100 μL of this compound dilution to a well in a 96-well plate (source plate).
Serially dilute the compounds by 3-fold for a total of 10 points. Transfer 10 μL of the compound from the source plate to a new 96-well plate (intermediate plate) and add 90 μL of Ix kinase buffer. Shake the mixture on the intermediate plate for 10 min. Transfer 5 μL of each well from the 96-well intermediate plate to a 384-well plate in duplicates. Add 10 μL of 2.5× enzyme solution to each well of the 384-well assay plate and incubate at room temperature for 10 min. Add 10 μL, of 2.5×FAM-labeled peptide and ATP solution and incubate at 28° C. for a period of time. Finally stop the reaction by adding 30 μL of stop buffer and collect data on Caliper to obtain the IC50.

The IC50 is the point on the concentration scale where inhibition reaches its midpoint. Regarding `Cn1cc(-c2cccc(NC(=O)c3cc4c(nc3OCCO)OC(C)(C)C4)n2)cn1` [Compound B18, 6-(2-Hydroxyethoxy)-2,2-dimethyl-N-(6-(1-methyl-1H-pyrazol-4-yl)pyridin-2-yl)-2,3-dihydrofuro[2,3-b]pyridine-5-carboxamide], the half-inhibitory concentration (IC50) (IRAK4 kinase, 10 μM ATP) was 22 nM.
Take `COCCOc1nc2c(cc1C(=O)Nc1cccc(-c3cnn(C)c3)n1)CC(C)(C)O2` [Compound B19, 6-(2-Methoxyethoxy)-2,2-dimethyl-N-(6-(1-methyl-1H-pyrazol-4-yl)pyridin-2-yl)-2,3-dihydrofuro[2,3-b]pyridine-5-carboxamide]: the half-maximal inhibitory concentration (IC50) (IRAK4 kinase, 10 μM ATP) amounted to 18 nM.
As for `CN(C)CCOc1nc2c(cc1C(=O)Nc1cccc(-c3cnn(C)c3)n1)CC(C)(C)O2` [Compound B32, 6-(2-(Dimethylamino)ethoxy)-2,2-dimethyl-N-(6-(1-methyl-1H-pyrazol-4-yl)pyridin-2-yl)-2,3-dihydrofuro[2,3-b]pyridine-5-carboxamide], the 50% inhibitory concentration (IC50) worked out at 236 nM.
For `Cn1cc(-c2cccc(NC(=O)c3cc4c(nc3O[C@H]3C[C@H](O)C3)OC(C)(C)C4)n2)cn1` [Compound B36, 6-(trans-3-Hydroxycyclobutoxy)-2,2-dimethyl-N-(6-(1-methyl-1H-pyrazol-4-yl)pyridin-2-yl)-2,3-dihydrofuro[2,3-b]pyridine-5-carboxamide], the “activity, times better than that of the positive control compound CA4948” value is listed as “more than 25 times” and the IC50 came to 4.5 nM.
